Reference: the Human Domainome abundance scans (Beltran et al. 2025)

B1: X-ray repair cross-complementing protein 6, residues 558 to 609; numbered along this chain, P12956 (parent)
chain: EYSEEELKTHISKGTLGKFTVPMLKEACRAYGLKSGLKKQELLEALTKHFQD

Variants of: B1
Test: abundance fitness (aPCA) (normalised: wild type 0, dead -1); higher = more abundant; growth selection in yeast, the domain comes from the species named
Settings: Homo sapiens

Abundance fitness of substitutions, site by site:
E44: W -0.27 ± 0.068 | R -0.234 ± 0.045 | Y -0.105 ± 0.07 | M -0.128 ± 0.079 | V -0.332 ± 0.053 | S -0.149 ± 0.051 | D -0.002 ± 0.052 | G -0.193 ± 0.056 | I -0.358 ± 0.096 | F -0.213 ± 0.054 | K -0.406 ± 0.092 | H -0.198 ± 0.099 | N -0.065 ± 0.1 | T -0.165 ± 0.068 | A -0.143 ± 0.043 | C -0.194 ± 0.058 | L -0.2 ± 0.042
T47: N -0.465 ± 0.12 | P -0.614 ± 0.15 | I -0.067 ± 0.059 | M -0.166 ± 0.12 | F -0.38 ± 0.21 | V -0.288 ± 0.075 | G -0.289 ± 0.048 | Y -0.066 ± 0.11 | A -0.091 ± 0.08 | W -0.585 ± 0.082 | R -0.266 ± 0.079 | K -0.372 ± 0.12 | L -0.114 ± 0.065 | E -0.386 ± 0.098 | D -0.141 ± 0.075 | S -0.321 ± 0.087 | C -0.355 ± 0.13
L43: P -0.711 ± 0.32 | H -0.506 ± 0.074 | S -0.52 ± 0.093 | R -0.396 ± 0.059 | V 0.058 ± 0.048 | N -0.418 ± 0.15 | W -0.436 ± 0.082 | T -0.243 ± 0.063 | C -0.281 ± 0.097 | K -0.516 ± 0.16 | Y -0.727 ± 0.19 | M 0.062 ± 0.061 | E -0.093 ± 0.079 | I -0.118 ± 0.13 | D -0.932 ± 0.24 | Q 0.128 ± 0.1
Q51: M -0.255 ± 0.14 | Y -0.329 ± 0.41 | L -0.714 ± 0.14 | R -0.181 ± 0.07 | F -0.301 ± 0.066 | E -0.286 ± 0.11 | P -0.566 ± 0.19 | A -0.145 ± 0.28 | T -0.294 ± 0.17 | D -0.19 ± 0.067 | C -0.66 ± 0.24 | H -0.124 ± 0.23 | S 0.019 ± 0.087
D52: P -0.512 ± 0.23 | S -0.495 ± 0.15 | G 0.063 ± 0.11 | E 0.11 ± 0.062 | A -0.355 ± 0.13 | T -0.208 ± 0.4 | Y 0.184 ± 0.11 | V -0.342 ± 0.13
H49: S -0.466 ± 0.085 | N -0.508 ± 0.2 | L -0.654 ± 0.086 | A -0.426 ± 0.049 | M -0.346 ± 0.11 | D -0.932 ± 0.21 | P -0.534 ± 0.15 | V -0.594 ± 0.066 | Y -0.096 ± 0.093 | W -0.403 ± 0.069 | C -0.398 ± 0.12 | R -0.225 ± 0.04 | I -0.573 ± 0.089 | T -0.663 ± 0.13 | E -0.562 ± 0.12 | F 0.281 ± 0.1 | K -0.413 ± 0.078
A45: Y -0.752 ± 0.16 | T -0.003 ± 0.048 | Q -0.015 ± 0.071 | H -0.577 ± 0.083 | D -0.533 ± 0.081 | V -0.1 ± 0.054 | C -0.116 ± 0.082 | I -0.486 ± 0.09 | R -0.273 ± 0.061 | L -0.193 ± 0.039 | P -0.654 ± 0.1 | G -0.294 ± 0.043 | W -0.641 ± 0.054 | K -0.336 ± 0.06 | S -0.14 ± 0.064 | N -0.121 ± 0.098
F50: W -0.443 ± 0.04 | Q -0.398 ± 0.14 | L -0.366 ± 0.058 | T -0.738 ± 0.11 | M -0.304 ± 0.082 | C -0.387 ± 0.043 | G -0.705 ± 0.063 | S -0.529 ± 0.038 | A -0.487 ± 0.08 | Y -0.392 ± 0.15 | R -0.964 ± 0.1 | I -0.4 ± 0.14 | V -0.239 ± 0.057 | P -0.702 ± 0.13 | K -0.766 ± 0.17 | H -0.765 ± 0.36
K48: N -0.088 ± 0.076 | I -0.338 ± 0.14 | R -0.086 ± 0.061 | M -0.006 ± 0.085 | E 0.02 ± 0.082 | C -0.11 ± 0.076 | L -0.043 ± 0.066 | S -0.115 ± 0.083 | T -0.109 ± 0.088 | Y -0.313 ± 0.12 | F -0.354 ± 0.15 | V -0.152 ± 0.068 | P -0.811 ± 0.17 | Q 0.166 ± 0.1 | A -0.018 ± 0.08 | W -0.297 ± 0.077 | H -0.368 ± 0.16 | D -0.031 ± 0.054
L46: N -0.832 ± 0.36 | T -0.916 ± 0.2 | R -0.773 ± 0.13 | S -0.361 ± 0.093 | E -0.798 ± 0.23 | P -0.531 ± 0.068 | M -0.874 ± 0.22 | A -0.777 ± 0.12 | W -0.415 ± 0.14 | Y -0.706 ± 0.071 | I -0.649 ± 0.38 | F -0.772 ± 0.18 | C -0.805 ± 0.32 | H -0.987 ± 0.36 | G -0.597 ± 0.045 | Q -0.78 ± 0.38 | V -0.327 ± 0.071 | D -0.388 ± 0.053

± gives the uncertainty stated by the source.
